Earlier results, collected in PMC10957332.

Key:
[1] = target: Histone H3 peptide (H3K36me2) (Homo sapiens) (UniProt P68431)
[2] = target: Histone H3 peptide (H3K4me3) N-terminal tail (Homo sapiens) (UniProt P68431)
[3] = target: Histone H3 peptide (H3K4me0) N-terminal tail (Homo sapiens) (UniProt P68431)

Substance	Kd [1]	Kd [2]	Kd [3]
DNMT3A PWWP (from UniProt Q9Y6K1)	63 µM	–	–
DNMT3A ADD (from UniProt Q9Y6K1)	–	35.6 µM	0.82 µM
